Experimental data reported in ChEMBL document CHEMBL3244374, “Studies on 1-substituted 4-(1,2-diphenylethyl)piperazine derivatives and their analgesic activities. 2. Structure-activity relationships of 1-cycloalkyl-4-(1,2-diphenylethyl)piperazines” (1978).

How the values were obtained:
Mus musculus [1] = experiment: Analgesic activity in sc dosed mouse by D'Amour-Smith method
Mus musculus [2] = experiment: Toxicity in mouse at >160 mg/kg, sc; details: in vivo

Compound | ED50 (Mus musculus [1]) [mg/kg] | Activity (Mus musculus [2])
COc1cccc(CC(c2ccccc2)N(CCO)CCO)c1.Cl (centres undefined) | > 320 | –
COc1ccccc1C(Cc1ccccc1)N(CCO)CCO.Cl (centres undefined) | – | Toxic
Cl.NC(Cc1cccc(O)c1)c1ccccc1 (centres undefined) | > 320 | –
COc1cccc(CC(N)c2ccccc2)c1.Cl (centres undefined) | > 320 | –
